Laboratory results taken from patent US20240002522A1 (INSERM INSTITUT NATIONAL DE LA SANTE ET DE LA RECHERCHE …, published 2024).

Target: T1, human CD25 (human, UniProt P01589 22-272)
T1 construct: In the functional assays it was native on T cells or SUDHL-1 cells; also called huCD25; hCD25
T1 sequence: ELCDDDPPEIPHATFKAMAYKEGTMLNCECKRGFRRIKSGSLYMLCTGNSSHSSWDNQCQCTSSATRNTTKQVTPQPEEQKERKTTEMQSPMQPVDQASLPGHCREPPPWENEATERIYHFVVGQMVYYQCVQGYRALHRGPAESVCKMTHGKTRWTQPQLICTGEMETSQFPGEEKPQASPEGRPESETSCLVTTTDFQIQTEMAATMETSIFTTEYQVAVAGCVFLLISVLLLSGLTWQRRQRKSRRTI
Assay: flow cytometry on HEK293 cells transiently transfected with huCD25; 3-fold dilutions from 500 nM; detection with anti-mouse IgG-APC

EC50 (read off the curve): ~900 pM
B1: Basiliximab (antibody, V domains shown)
VH: QVQLQQSGTVLARPGASVKMSCKASGYSFTRYWMHWIKQRPGQGLEWIGAIYPGNSDTSYNQKFEGKAKLTAVTSASTAYMELSSLTHEDSAVYYCSRDYGYYFDFWGQGTTLTVSS
VL: QIVSTQSPAIMSASPGEKVTMTCSASSSRSYMQWYQQKPGTSPKRWIYDTSKLASGVPARFSGSGSGTSYSLTISSMEAEDAATYYCHQRSSYTFGGGTKLEIK
